From publication PMC6645225 (ACS Omega, 2018)

Molecular target: T1, CYP1A1 (Homo sapiens, UniProt P04798)
T1 sequence (P04798 1-512): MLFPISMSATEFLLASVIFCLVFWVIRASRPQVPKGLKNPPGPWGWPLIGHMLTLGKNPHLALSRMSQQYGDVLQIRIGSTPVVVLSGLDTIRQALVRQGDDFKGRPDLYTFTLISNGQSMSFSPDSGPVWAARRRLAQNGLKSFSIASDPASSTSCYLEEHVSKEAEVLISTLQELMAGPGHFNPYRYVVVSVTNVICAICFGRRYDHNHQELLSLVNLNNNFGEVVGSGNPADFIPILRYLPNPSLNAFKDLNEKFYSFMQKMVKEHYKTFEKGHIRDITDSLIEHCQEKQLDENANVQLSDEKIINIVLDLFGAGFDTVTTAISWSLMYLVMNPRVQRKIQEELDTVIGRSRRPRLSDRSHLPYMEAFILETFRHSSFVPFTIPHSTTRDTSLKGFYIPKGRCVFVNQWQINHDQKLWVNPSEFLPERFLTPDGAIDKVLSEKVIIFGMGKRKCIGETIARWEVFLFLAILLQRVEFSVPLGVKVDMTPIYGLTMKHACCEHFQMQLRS
Assay: CYP1A1 inhibition in live HEK293 cells overexpressing CYP1A1
Assay type: cell-based
Conditions: live HEK293 cells overexpressing CYP1A1, % inhibition of CYP1A1 at 10 μM (Mean ± SD) HEK293 cells

SMILES: COc1c2occc2c(OC)c2c(=O)cc(C)oc12 [compound 1, Khellin, reference compound]
- inhibition at 10 µM: 81%
